Data published in PubChem BioAssay AID743317 (Broad Institute, 2014).
The list shows a part of the results, in another mix than the full data. Results filed as inconclusive are left out. The source made the active and inactive calls.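 Rule for the calls: active = fitted curve reaches 40% activation at or below the top valid dose, and every replicate test is called active; inconclusive = replicate tests disagree, some active and some inactive; inactive = all replicate tests inactive, including activity in the wrong direction.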

Sequences of proteins named here, by UniProt entry; tags and fusion partners are left off. A change or cut given only in a name is not applied to a line headed by its entry.
UniProt Q9NZ08: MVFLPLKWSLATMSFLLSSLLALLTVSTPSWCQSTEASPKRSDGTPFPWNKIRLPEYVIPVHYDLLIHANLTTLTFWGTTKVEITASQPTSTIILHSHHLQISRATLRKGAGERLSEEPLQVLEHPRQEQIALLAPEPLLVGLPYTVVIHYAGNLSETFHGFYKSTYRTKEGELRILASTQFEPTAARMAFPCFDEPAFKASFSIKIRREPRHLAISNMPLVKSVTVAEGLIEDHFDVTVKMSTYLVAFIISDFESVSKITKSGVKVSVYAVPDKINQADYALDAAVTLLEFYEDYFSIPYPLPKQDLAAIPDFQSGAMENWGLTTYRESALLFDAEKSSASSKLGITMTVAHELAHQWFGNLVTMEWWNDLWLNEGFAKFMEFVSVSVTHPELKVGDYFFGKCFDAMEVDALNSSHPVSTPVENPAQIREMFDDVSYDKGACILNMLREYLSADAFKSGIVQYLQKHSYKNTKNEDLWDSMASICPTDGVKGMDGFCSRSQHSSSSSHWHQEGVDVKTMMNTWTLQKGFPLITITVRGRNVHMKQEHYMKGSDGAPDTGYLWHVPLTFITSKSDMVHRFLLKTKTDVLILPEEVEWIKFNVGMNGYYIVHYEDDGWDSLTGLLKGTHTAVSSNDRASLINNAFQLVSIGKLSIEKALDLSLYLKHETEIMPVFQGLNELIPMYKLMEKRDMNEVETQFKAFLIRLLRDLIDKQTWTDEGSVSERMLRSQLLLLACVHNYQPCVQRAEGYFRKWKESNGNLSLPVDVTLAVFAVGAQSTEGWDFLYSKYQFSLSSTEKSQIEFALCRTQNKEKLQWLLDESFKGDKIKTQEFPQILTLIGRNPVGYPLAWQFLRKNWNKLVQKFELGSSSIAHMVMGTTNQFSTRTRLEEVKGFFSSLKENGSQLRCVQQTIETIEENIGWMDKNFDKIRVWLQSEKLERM

Molecular target: Endoplasmic reticulum aminopeptidase 1 (Homo sapiens) (UniProt Q9NZ08)
Assay: ERAP1 aminopeptidase activity change, dose response, biochemical, fluorescence, cherry-pick (AID 743317)
Details: ERAP1 enzyme, Leu-AMC fluorescence, 60 min; at 11 µM (top of the series)

activity increase (activation): inactive: -45.9%
Compound: O=c1ccc2ccc(O)cc2o1
